Sequences of proteins named here, by UniProt entry; tags and fusion partners are left off.
UniProt Q96RR4, whole entry: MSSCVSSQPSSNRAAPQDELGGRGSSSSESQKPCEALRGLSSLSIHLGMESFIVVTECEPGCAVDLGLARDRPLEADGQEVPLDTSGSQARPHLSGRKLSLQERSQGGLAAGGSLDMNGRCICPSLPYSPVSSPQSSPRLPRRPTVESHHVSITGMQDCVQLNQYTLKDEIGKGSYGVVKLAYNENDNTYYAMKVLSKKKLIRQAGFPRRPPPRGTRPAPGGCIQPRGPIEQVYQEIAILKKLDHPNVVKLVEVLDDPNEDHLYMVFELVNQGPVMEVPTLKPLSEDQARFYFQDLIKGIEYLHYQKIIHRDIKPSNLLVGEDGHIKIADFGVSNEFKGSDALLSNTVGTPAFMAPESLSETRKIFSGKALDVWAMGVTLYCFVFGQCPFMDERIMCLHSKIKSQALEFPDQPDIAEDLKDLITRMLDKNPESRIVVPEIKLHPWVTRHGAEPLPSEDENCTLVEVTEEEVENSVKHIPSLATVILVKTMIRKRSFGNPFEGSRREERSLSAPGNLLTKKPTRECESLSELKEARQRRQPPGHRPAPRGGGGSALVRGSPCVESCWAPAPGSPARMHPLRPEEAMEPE

According to patent US12158399B2, “CaMKK2 inhibitor compositions and methods of using the same” (Duke University, priority 2016, dated 2024):

Tests used:
MMTV-PyMT mammary tumor = details: MMTV-PyMT mice treated daily, indicated doses
CaMKK2 = CaMKK2 (Homo sapiens, UniProt Q96RR4); details: cited from earlier work

SMILES: O=C(O)c1ccc2c3c1cccc3c(=O)n1c3ccccc3nc21 [STO-609]
- tumor growth (fold change in tumor volume) (MMTV-PyMT mammary tumor): inhibited in dose responsive manner
- affinity for CaMKK2 relative to CaMKK1 (CaMKK2): approximately 5 fold
